Values of other authors in paper PMC6017357, “In Vitro Inhibitory Effects of Synthetic Cannabinoid EAM-2201 on Cytochrome P450 and UDP-Glucuronosyltransferase Enzyme Activities in Human Liver Microsomes” (Molecules : A Journal of Synthetic Chemistry and Natural …, 2018).

Amino acid sequences for entries named in this document (tags omitted).
UniProt P11712, whole entry: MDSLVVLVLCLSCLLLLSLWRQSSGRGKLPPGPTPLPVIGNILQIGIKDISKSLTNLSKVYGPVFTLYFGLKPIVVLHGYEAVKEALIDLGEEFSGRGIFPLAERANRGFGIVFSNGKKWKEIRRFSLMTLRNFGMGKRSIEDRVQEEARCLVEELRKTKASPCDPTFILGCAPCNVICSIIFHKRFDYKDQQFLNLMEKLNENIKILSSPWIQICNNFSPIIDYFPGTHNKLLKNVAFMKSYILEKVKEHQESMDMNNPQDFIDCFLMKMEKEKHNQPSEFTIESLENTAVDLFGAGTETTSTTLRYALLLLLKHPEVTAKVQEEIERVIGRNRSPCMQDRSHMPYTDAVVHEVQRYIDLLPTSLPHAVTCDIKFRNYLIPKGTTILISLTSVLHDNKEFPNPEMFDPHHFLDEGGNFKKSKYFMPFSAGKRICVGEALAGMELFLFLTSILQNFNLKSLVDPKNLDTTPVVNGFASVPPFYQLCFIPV

Target: CYP2C9 (Homo sapiens, UniProt P11712)
Details: read-out: Ki, CYP2C9-catalyzed diclofenac hydroxylation; mixed or competitive inhibition, human liver microsomes; cited from earlier work

CCCCCc1cc(O)c2c(c1)OC(C)(C)c1ccc(C)cc1-2 [cannabinol]
Ki: 1.29 µM
